The subject of the assay is HeLa cells. In words: Annexin V-FITC/PI apoptosis detection by flow cytometry. The settings on record: 48 h, at IC50 (SL10 8 µM, SL35 6 µM, ruxolitinib 25 µM). (In flow cytometry, cells or beads pass a laser one at a time.)

For `N#CC[C@H](C1CCCC1)n1cc(-c2ncnc3[nH]ccc23)cn1` [Ruxolitinib, reference compound], the early apoptosis was determined as 22.65 ± 2.71% and the late apoptosis is given as 10.61 ± 0.40%.

These data come from publication PMC12786078, “Identification of Novel JAK2 Inhibitors from Amino Derivatives of Epoxyalantolactone: In Silico and In Vitro Studies” (International Journal of Molecular Sciences, 2025).
